Assay results: patent publication US20100190846A1, “MICROBICIDAL AGENT AND MICROBICIDAL COMPOSITION” (priority 2006, published 2010)

Assay: Solubility in DMSO observed during sample preparation
Format: physicochemical
Protocol: First, 400 mg of sample was dissolved in 1 mL of DMSO to prepare 400 mg/mL sample solution. Then 0.5 mL of this 400 mg/mL sample solution was diluted 2-fold to prepare 200 mg/mL sample solution. In the same manner, sample solutions of 100 mg/mL, 50.0 mg/mL, and 25.0 mg/mL were prepared. In addition, 300 mg/mL sample solution was prepared. Thereafter, 0.2 mL of these sample solutions each was mixed with 19.8 mL of BHI (Brain Heart Infusion Agar, Becton Dickinson, MD) medium, thereby preparing agar plates having the sample concentration of 4.0 mg/mL, 3.0 mg/mL, 2.0 mg/mL, 1.0 mg/mL, 0.5 mg/mL, and 0.25 mg/mL in dishes. As a control for comparison of microbicidal activity of samples, agar plates containing catechin having the above-described concentrations were prepared. Sterilized water was used for dissolving catechin, because catechin was insoluble in DMSO.
First, 4 mg of 5,7,4′-trihydroxy-3′,5′-dimethoxyflavone sample was dissolved in 200 μL to prepare 20 mg/mL sample solution. To 100 μL of this 20 mg/mL sample solution, 100 μL of sterilized water was added to prepare 200 μL of 10 mg/mL sample solution. To the solution, 60 μL DMSO and 140 μL of sterilized water were added to prepare 400 μL of 5.0 mg/mL sample solution. DMSO was used in the concentration of 40%, because the sample precipitated from 30% DMSO. […]

Substance: catechin [reference compound]
- solubility in DMSO: insoluble
